According to patent US6632626B1, “Methods of assaying farnesyl transferase” (Board of Regents, The University of Texas System, priority 1990, dated 2003):

What was measured:
Type in all cases: biochemical
[1] = molecular target: T1, purified farnesyl:protein transferase (Rattus norvegicus, UniProt Q02293+Q04631); test: Inhibition of farnesylation of p21H-ras by affinity-purified farnesyl:protein transferase (FIG. 12A); conditions: affinity-purified enzyme, 40 μM p21H-ras
T1 construct: Brains from 50 male Sprague-Dawley rats (100-150 g) were homogenized; from tissue

[2] = molecular target: T1, purified farnesyl:protein transferase; test: Farnesylation of tetrapeptides by purified farnesyl:protein transferase, thin layer chromatography (substrate or pure inhibitor); conditions: 3.6 μM tetrapeptide, purified enzyme (FIG. 15)
Experimental: FIG. 15. […] The standard assay mixture (25 μl) contained 17 pmol [^3H]FPP (44,000 dpm/pmol), 5 ng of purified farnesyl:protein transferase, 0.2% (w/v) octyl-β-D-glucoside, and 3.6 μM of the indicated tetrapeptide. After incubation for 15 min at 37° C., the entire reaction mixture was subjected to thin layer chromatography for 4 h on Polygram SIL G sheet (Brinkmann Instruments) in a solvent system containing N-propanol/concentrated NH4OH/water (6:3:1). The TLC sheet was then dried, sprayed with ENHANCE Spray (Dupont-New England Nuclear) and exposed to Kodak X-OMAT AR Film XAR-5 for 25 h at −70° C.

[3] = molecular target: T2, rat brain farnesyl:protein transferase (Rattus norvegicus, UniProt Q02293+Q04631); test: Farnesyl:protein transferase inhibition: competition with p21H-ras for [3H]farnesyl from [3H]FPP, partially purified enzyme, TCA filter assay
T2 construct: Brains from 50 male Sprague-Dawley rats (100-150 g) were homogenized; from tissue
Experimental: Farnesyl:protein transferase activity was determined by measuring the amount of ^3H-farnesol transferred from ^3H]farnesyl pyrophosphate ([^3H]FPP) to p21^H-ras protein. The standard reaction mixture contained the following concentrations of components in a final volume of 25 μl: 50 mM Tris-chloride (pH 7.5), 50 μM ZnCl2, 20 mM KCl, 1 mM DTT, and 40 μM p21^H-ras. The mixture also contained 10 pmoles of [^3H]FPP (−30,000 dpm/pmol) and 1.8-3.5 μg of partially purified farnesyl:protein transferase (see below). After incubation for 1 h at 37° C. in 12×75-mm borosilicate tubes, the reaction was stopped by addition of 0.5 ml of 4% SDS and then 0.5 ml of 30% trichloroacetic acid (TCA).
The tubes were vortexed and left on ice for 45-60 min, after which 2 ml of a 6% TCA/2% SDS solution were added. […] The tubes were rinsed twice with 2 ml of the same solution, and each filter was washed five times with 2 ml of 6% TCA, dried, and counted in a scintillation counter. One unit of activity is defined as the amount of enzyme that transfers 1 pmol of [^3H]farnesol from [^3H]FPP into acid-precipitable p21^H-ras per hour under the standard conditions.
In the enzyme characterization experiments of FIGS. 1-4, 8, and 9, a partially purified fraction of farnesyl:protein transferase was used. […]

[4] = molecular target: T1, purified farnesyl:protein transferase; test: Inhibition of [3H]farnesyl transfer to biotinylated KTSCVIM by purified enzyme, streptavidin-agarose capture (FIG. 12B); conditions: affinity-purified enzyme, 3.4 μM biotinylated KTSCVIM

Row | potency relative to CVIM, p21H-ras as acceptor [1] | pure inhibitor or substrate for farnesylation [2] | inhibitory activity against farnesylation of p21H-ras (in words) [3] | potency relative to CVIM, biotinylated heptapeptide as acceptor [4] | Compound
1 | more potent than CVIM | not and pure inhibitors | best inhibitor identified to date | more potent than CVIM | CSCC[C@H](NC(=O)[C@H](Cc1ccccc1)NC(=O)[C@@H](NC(=O)[C@@H](N)CS)C(C)C)C(=O)O [CVFM]
2 |  |  | did not compete efficiently |  | CC[C@H](C)[C@H](NC(=O)[C@H](C)NC(=O)[C@@H](N)CS)C(=O)N[C@@H](CC(C)C)C(=O)O [CAIL]
